In patent publication US20240366649A1, “4-ETHYNYL-3-HYDROXY-TETRAHYDROFURANYL-ADENINE PHOSPHORAMIDATES AND RELATED COMPOUNDS AND THEIR USE IN TREATING MEDICAL CONDITIONS” (ROME THERAPEUTICS, INC., priority 2021, published 2024):

Test system: IFN production in THP1 TREX1 KO cells
Assay: Cellular assay for altering IFN production in THP1 TREX1 KO cells
Settings: for Maximum IFN Induction: maximum-fold IFN induction, 1 μM 5-aza-2′-deoxycytidine, five days
Experimental: THP1-Dual™ KO-TREX1 cells were purchased from Invivogen (cat #thpd-kotrex). The THP1-Dual™ KO-TREX1 cells were cultured in RPMI 1640, 10% heat-inactivated fetal bovine serum, 25 mM HEPES, 10 μg/mL Blasticidin, and […] Zeocin. THP1-Dual™ KO-TREX cells were treated with a dose titration of test compound in the presence of 1 μM 5-aza-2′-deoxycytidine (Sigma, cat #189825). Type 1 Interferon and cell viability were assessed after five days of treatment.
Stock solution of test compound was prepared in DMSO followed by a three-fold dilution in DMSO. Additional 50× dilution was prepared in cell culture media for each dilution. 10 μL of diluted test compound was then added to a 384-well plate.
THP1-Dual™ KO-TREX1 cells were treated with 1 μM 5-aza-2′-deoxycytidine. THP1-Dual™ KO-TREX1 cells (50 μL) were added to each well of the 384-well plate containing test compound titration at 10,000 cells/well. Cells were incubated at 37° C., 5% CO2 in a humidified incubator for five days. On day five, 20 μL of cell supernatant was transferred to a 384-well, white-walled plate, followed by addition to each well of 50 μL of QUANTI-LUC solution containing stabilizer. Luminescence was detected on a plate reader according to manufacturer's instructions.
For certain compounds, the assay was run in a 96-well format, with the following modifications: • 190 μL, instead of 50 μL, of cells were added to each well, to provide 50,000 cells/well, instead of 10,000 cells/well, • Cells were incubated for 6 days, instead of 5 days, • 25 μL, instead of 20 μL, of cell supernatant was added to the white-walled plate for QUANT-LUC treatment; and • 25 μL, instead of 30 μL, of CellTiter-Glo was added to assess cell viability.
Percent inhibition of interferon was calculated using the following analysis: (Average DMSO-Sample)/(Average DMSO-Average 30 μM control reagent)*100. The control reagent for inhibition of interferon was a specific nucleoside reverse-transcriptase inhibitor with molecular weight <600 a.m.u. Percent induction of interferon was calculated using the following analysis: (Sample-Average DMSO)/(10 μM control reagent-Average DMSO)*100. The control reagent for induction of interferon was compound 8 (4′-ethynyl-2-chloro-2′-deoxyadenosine).

| Compound | Maximum IFN Induction | Concentration at Max Induct. (lowest concentration at which the maximum-fold IFN induction was observed) [µM] |
| --- | --- | --- |
| C#C[C@]1(COP(=O)(N[C@@H](C)C(=O)OC)Oc2ccc(Br)cc2)O[C@@H](n2cnc3c(N)nc(Cl)nc32)C[C@@H]1O (stereo partly shown) | >> (values from 1.50 to 2.00) |  |
| C#C[C@]1(COP(=O)(N[C@@H](C)C(=O)OCc2ccccc2)Oc2ccccc2)O[C@@H](n2cnc3c(N)nc(Cl)nc32)C[C@@H]1O (stereo partly shown) | >> (values from 1.50 to 2.00) |  |
| C#C[C@]1(COP(=O)(N[C@@H](C)C(=O)OCC)Oc2ccccc2)O[C@@H](n2cnc3c(N)nc(Cl)nc32)C[C@@H]1O (stereo partly shown) | >> (values from 1.50 to 2.00) | 10 |
